Earlier results, collected in patent EP4687750B1, “ORAL CARE KIT COMPRISING A LIGHT EMITTING DEVICE AND AN ORAL COMPOSITION” (dated 2026).

Conditions: heating curcumin in water to boiling for 10 minutes; cited from earlier work

In the case of COc1cc(/C=C/C(=O)CC(=O)/C=C/c2ccc(O)c(OC)c2)ccc1O, the increase of solubility is listed as 12 -fold.
